# Patent publication US12274745B2, “Conjugate of CAPRIN-1 antibody linked to immune activator for cancer treatment” (TORAY INDUSTRIES, INC., priority 2016, dated 2025)
# Key:
# [1] = system: Human lung cancer cells H1650; assay: In vivo antitumor effect, H1650-bearing Balb/c nude mice (Example 7); settings: 10 mg/kg tail vein once a week, three times, 25 days after the start of the administration
# Description: Specifically, the conjugates of the present invention were examined for their antitumor effect using Balb/c nude mice in which human-derived cancer cells expressing CAPRIN-1 were transplanted. Human lung cancer cells H1650 were subcutaneously transplanted to the ventral regions of the mice, which were then grown until tumor became 180 mm^3 or larger to prepare cancer-bearing mice. The lung cancer cells H1650 express the CAPRIN-1 protein on the cell membrane surface. As shown in Example 5, Conjugates 1 to 28 specifically bind to CAPRIN-1 on the cell membrane surface of the lung cancer cells H1650. Conjugates 1 to 14 prepared in Example 3 and Conjugates 15 to 28 prepared in Example 4 were each administered at 10 mg/kg to the tail veins of 10 cancer-bearing mice.
# A solution containing a conjugate of cetuximab and resiquimod was prepared by the method described in Example 3 and administered as a comparative control in the same amount as above to the cancer-bearing mice. The administration was carried out once a week a total of three times.
# (§1) PBS(−) was administered to the cancer-bearing mice, for a negative control.
# (§2) The tumor sizes of the cancer-bearing mice after the administration were measured using calipers over time, and tumor volumes were calculated according to an ordinary method based on the expression: (Length of the major axis of tumor)×(Length of the minor axis of tumor)^2×0.5. […]
# [2] = system: Human breast cancer cells BT-474; assay: Flow cytometry, reactivity with cell membrane surface of CAPRIN-1-expressing cancer cells (BT-474); type: cell-based; settings: BT474 cells
# Description: Next, the reactivity with the cell membrane surface of CAPRIN-1-expressing cancer cells was verified by flow cytometry. Human breast cancer cells BT-474 (from ATCC) or mouse breast cancer cells 4T1 (from ATCC) were centrifuged in 1.5 mL microcentrifuge tubes (2×10^5 cells per tube). 100 μL of the solutions containing each of Conjugates 1 to 6, Conjugates 15 to 20, Control conjugate 1, and Control conjugate 2 was then each added to separate tubes. The tube was left to stand on ice for 1 hour. After washing with PBS, Alexa 488-labeled anti-rabbit IgG (H+L) diluted 100-fold with PBS(−) containing 0.5% FBS (0.5% FBS-PBS(−)) was added thereto, and the tube was left to stand on ice for 1 hour. After washing with 0.5% FBS-PBS(−), the cells were suspended in 0.2 μg/mL propidium iodide and 0.5% FBS-PBS(−), and the fluorescence intensity was measured using FACSVerse™ (Becton, Dickinson and Company).
# [3] = system: Human breast cancer cells BT474; assay: In vivo antitumor effect, BT474-bearing NOD-SCID mice (Example 6); settings: 10 mg/kg tail vein once a week, 50 days after the start of the administration
# Description: Specifically, the conjugates of the present invention were examined for their antitumor effect using NOD-SCID mice in which human-derived cancer cells expressing the CAPRIN-1 protein were transplanted. Human breast cancer cells BT474 were mixed with Matrigel (Sigma-Aldrich Corp.) and subcutaneously transplanted at 10^7 cells/mouse to the mice, which were then grown until tumor became 180 mm^3 or larger to prepare cancer-bearing mice. BT474 expresses the CAPRIN-1 protein on the cell membrane surface. As shown in Example 5, Conjugates 1 to 6 and Conjugates 15 to 20 prepared using anti-CAPRIN-1 polyclonal antibodies #1 to #6, and Conjugates 7 to 14 and Conjugates 21 to 28 prepared using anti-CAPRIN-1 monoclonal antibodies specifically bind to the cell membrane surface. Conjugates 1 to 28 were each administered at 10 mg/kg to the tail veins of 10 cancer-bearing mice.
# The administration to the cancer-bearing mice was carried out once a week.
# as §1, §2
Substance,tumor volume relative to the tumor volume of the negative control (100%) [1],fluorescence intensity (reactivity with the cell surface) [2],tumor volume relative to the tumor volume of the negative control (100%) [3]
"conjugate of cetuximab and resiquimod: conjugate of cetuximab and resiquimod prepared by the method described in Example 3, comparative control",32%,–,–
"conjugate of trastuzumab and resiquimod: conjugate of trastuzumab and resiquimod prepared by the method described in Example 3, comparative control",–,specifically binds to BT474,54%
